From patent US6610824B2 (Amylin Pharmaceuticals, Inc., priority 1991, dated 2003) come the findings set out here.

In data set [1] the target is T1, amylin receptors (Rattus norvegicus, UniProt P32214).
T1 construct: This basal forebrain tissue, containing the nucleus accumbens and surrounding regions, was weighed and homogenized; from tissue; host or cells: rat basal forebrain (nucleus accumbens and surrounding regions) membranes
T1 sequence (P32214 25-516): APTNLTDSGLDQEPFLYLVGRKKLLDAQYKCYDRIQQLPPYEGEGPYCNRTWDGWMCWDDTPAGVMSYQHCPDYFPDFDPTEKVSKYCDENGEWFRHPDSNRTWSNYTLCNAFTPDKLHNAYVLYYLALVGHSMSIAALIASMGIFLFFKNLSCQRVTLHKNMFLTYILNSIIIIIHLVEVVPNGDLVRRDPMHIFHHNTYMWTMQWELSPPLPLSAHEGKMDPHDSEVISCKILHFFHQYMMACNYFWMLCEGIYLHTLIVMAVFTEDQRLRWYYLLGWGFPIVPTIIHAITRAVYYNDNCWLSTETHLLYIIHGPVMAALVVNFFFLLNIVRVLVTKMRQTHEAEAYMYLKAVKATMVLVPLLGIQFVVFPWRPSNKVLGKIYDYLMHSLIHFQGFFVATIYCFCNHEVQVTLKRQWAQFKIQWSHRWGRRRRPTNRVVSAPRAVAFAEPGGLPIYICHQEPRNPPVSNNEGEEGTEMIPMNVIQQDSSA
T1 sequence (Q9JJ74 27-148 partner): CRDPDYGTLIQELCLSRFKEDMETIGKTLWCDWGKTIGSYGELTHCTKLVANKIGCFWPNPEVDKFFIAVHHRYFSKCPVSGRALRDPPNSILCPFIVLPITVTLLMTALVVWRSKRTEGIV
Kind of data set: Receptor binding assay (125I-rat amylin competition, rat basal forebrain membranes). Conditions: competition with 125I-rat amylin at 12-16 pM. From the text: Unlabeled peptides were obtained from BACHEM Inc. (Torrance, Calif.) and Peninsula Laboratories (Belmont, Calif.).
Male Sprague-Dawley rats (200-250) grams were sacrificed by decapitation. Brains were removed to cold phosphate-buffered saline (PBS). From the ventral surface, cuts were made rostral to the hypothalamus, bounded laterally by the olfactory tracts and extending at a 45Ε angle medially from these tracts. This basal forebrain tissue, containing the nucleus accumbens and surrounding regions, was weighed and homogenized in ice-cold 20 mM HEPES buffer (20 mM HEPES acid, pH adjusted to 7.4 with NaOH at 23ΕC). […] The final membrane pellet was resuspended in 20 mM HEPES buffer containing 0.2 mM phenylmethylsulfonyl fluoride (PMSF).
Solutions were incubated for 60 minutes at 2ΕC. […] Filters were washed immediately before filtration with 5 ml cold PBS, and immediately after filtration with 15 ml cold PBS.

Data set [2] is described as follows: Solubility. Type of data set: physicochemical. From the text: (§1) This may be due in some measure, although this is not known, to the different aggregation properties of the amylins from different species.
(§2) The agonist analogues of amylin of this invention are useful in view of their pharmacological properties. […] In addition to the description of compounds pursuant to FIG. 3, certain preferred compounds are set forth in Table I. The preferred compounds des-^1Lys-h-amylin [SEQ. ID. NO. 7], ^28Pro-h-amylin [SEQ. ID. NO. 8], ^25, 28, 29Pro-h-amylin [SEQ. ID. NO. 9], ^18Arg^25, 28Pro-h-amylin [SEQ. ID. NO. 10], and des-^1Lys^18Arg^25, 28Pro-h-amylin [SEQ. ID. NO. […] These preferred compounds include ^25Pro^26Val^28, 29Pro-h-amylin [SEQ. ID. NO. 12], ^25, 28, 29Pro-h-amylin, and ^18Arg^25, 28Pro-h-amylin.

Data set [3] can be described thus: Stability in solution. In kind it is physicochemical.
Excerpt: as §1, §2

pIC50: −log10 of the molar value.

For `CC(C)C[C@H](NC(=O)[C@H](CCCNC(=N)N)NC(=O)[C@H](CCC(N)=O)NC(=O)[C@@H](NC(=O)[C@H](C)NC(=O)[C@@H]1CSSC[C@H](NC(=O)[C@@H](N)CCCCN)C(=O)N[C@@H](CC(N)=O)C(=O)N[C@@H]([C@@H](C)O)C(=O)N[C@@H](C)C(=O)N[C@@H]([C@@H](C)O)C(=O)N1)[C@@H](C)O)C(=O)N[C@@H](C)C(=O)N[C@@H](CC(N)=O)C(=O)N[C@@H](Cc1ccccc1)C(=O)N[C@@H](CC(C)C)C(=O)N[C@H](C(=O)N[C@@H](Cc1c[nH]cn1)C(=O)N[C@@H](CO)C(=O)N[C@@H](CO)C(=O)N[C@@H](CC(N)=O)C(=O)N[C@@H](CC(N)=O)C(=O)N[C@@H](Cc1ccccc1)C(=O)NCC(=O)N1CCC[C@H]1C(=O)N[C@H](C(=O)N[C@@H](CC(C)C)C(=O)N1CCC[C@H]1C(=O)N1CCC[C@H]1C(=O)N[C@H](C(=O)N[C@@H](CC(N)=O)C(=O)N[C@H](C(=O)NCC(=O)N[C@@H](CO)C(=O)N[C@@H](CC(N)=O)C(=O)N[C@H](C(=O)N[C@@H](Cc1ccc(O)cc1)C(N)=O)[C@@H](C)O)C(C)C)[C@@H](C)O)C(C)C)C(C)C` [Example 2, ^25Pro^26Val^28, 29Pro-h-Amylin], in data set [1], the pIC50 (as a rule, the negative decadic logarithm of the IC50, by convention in mol/L) was 10.74. Besides, in data set [2], the solubility entry is on record as “more desirable”. Besides, in data set [3], the stability in solution result is “more desirable”.
Molecule `CC[C@H](C)[C@H](NC(=O)[C@@H]1CCCN1C(=O)CNC(=O)[C@H](Cc1ccccc1)NC(=O)[C@H](CC(N)=O)NC(=O)[C@H](CC(N)=O)NC(=O)[C@H](CO)NC(=O)[C@H](CO)NC(=O)[C@H](CCCNC(=N)N)NC(=O)[C@@H](NC(=O)[C@H](CC(C)C)NC(=O)[C@H](Cc1ccccc1)NC(=O)[C@H](CC(N)=O)NC(=O)[C@H](C)NC(=O)[C@H](CC(C)C)NC(=O)[C@H](CCCNC(=N)N)NC(=O)[C@H](CCC(N)=O)NC(=O)[C@@H](NC(=O)[C@H](C)NC(=O)[C@@H]1CSSC[C@H](NC(=O)[C@@H](N)CCCCN)C(=O)N[C@@H](CC(N)=O)C(=O)N[C@@H]([C@@H](C)O)C(=O)N[C@@H](C)C(=O)N[C@@H]([C@@H](C)O)C(=O)N1)[C@@H](C)O)C(C)C)C(=O)N[C@@H](CC(C)C)C(=O)N1CCC[C@H]1C(=O)N[C@@H](CO)C(=O)N[C@H](C(=O)N[C@@H](CC(N)=O)C(=O)N[C@H](C(=O)NCC(=O)N[C@@H](CO)C(=O)N[C@@H](CC(N)=O)C(=O)N[C@H](C(=O)N[C@@H](Cc1ccc(O)cc1)C(N)=O)[C@@H](C)O)C(C)C)[C@@H](C)O` [Example 10, ^18Arg^25, 28Pro-h-Amylin] had a pIC50 in data set [1] of 10.49. The solubility result in data set [2] is reported as “more desirable”. In addition, in data set [3], the stability in solution result is given as “more desirable”.
The molecule `CC[C@H](C)[C@H](NC(=O)[C@@H]1CCCN1C(=O)CNC(=O)[C@H](Cc1ccccc1)NC(=O)[C@H](CC(N)=O)NC(=O)[C@H](CC(N)=O)NC(=O)[C@H](CO)NC(=O)[C@H](CO)NC(=O)[C@H](Cc1c[nH]cn1)NC(=O)[C@@H](NC(=O)[C@H](CC(C)C)NC(=O)[C@H](Cc1ccccc1)NC(=O)[C@H](CC(N)=O)NC(=O)[C@H](C)NC(=O)[C@H](CC(C)C)NC(=O)[C@H](CCCNC(=N)N)NC(=O)[C@H](CCC(N)=O)NC(=O)[C@@H](NC(=O)[C@H](C)NC(=O)[C@@H]1CSSC[C@H](NC(=O)[C@@H](N)CCCCN)C(=O)N[C@@H](CC(N)=O)C(=O)N[C@@H]([C@@H](C)O)C(=O)N[C@@H](C)C(=O)N[C@@H]([C@@H](C)O)C(=O)N1)[C@@H](C)O)C(C)C)C(=O)N[C@@H](CC(C)C)C(=O)N1CCC[C@H]1C(=O)N1CCC[C@H]1C(=O)N[C@H](C(=O)N[C@@H](CC(N)=O)C(=O)N[C@H](C(=O)NCC(=O)N[C@@H](CO)C(=O)N[C@@H](CC(N)=O)C(=O)N[C@H](C(=O)N[C@@H](Cc1ccc(O)cc1)C(N)=O)[C@@H](C)O)C(C)C)[C@@H](C)O` [Example 14, ^25, 28, 29Pro-h-Amylin] gave a pIC50 in data set [1] of 11.00. The solubility entry in data set [2] is on record as “more desirable”. Also, in data set [3], the stability in solution result is recorded as “more desirable”.
